Source: PubChem BioAssay AID588590 (National Center for Advancing Translational Sciences (NCATS), 2011)
The list shows a part of the results, in another mix than the full data. Results filed as inconclusive are left out. The source made the active and inactive calls. The call rests on the fitted dose curve; in most records, active means well fitted inhibition curve with a large enough effect; inconclusive means small, poorly fitted or top-dose-only effect, or another doubt; inactive means no such curve, though single readings can be large or run the other way.

Protein sequences, listed by entry. Tags and fused reporters are not part of them.
UniProt Q9UNA4, whole entry: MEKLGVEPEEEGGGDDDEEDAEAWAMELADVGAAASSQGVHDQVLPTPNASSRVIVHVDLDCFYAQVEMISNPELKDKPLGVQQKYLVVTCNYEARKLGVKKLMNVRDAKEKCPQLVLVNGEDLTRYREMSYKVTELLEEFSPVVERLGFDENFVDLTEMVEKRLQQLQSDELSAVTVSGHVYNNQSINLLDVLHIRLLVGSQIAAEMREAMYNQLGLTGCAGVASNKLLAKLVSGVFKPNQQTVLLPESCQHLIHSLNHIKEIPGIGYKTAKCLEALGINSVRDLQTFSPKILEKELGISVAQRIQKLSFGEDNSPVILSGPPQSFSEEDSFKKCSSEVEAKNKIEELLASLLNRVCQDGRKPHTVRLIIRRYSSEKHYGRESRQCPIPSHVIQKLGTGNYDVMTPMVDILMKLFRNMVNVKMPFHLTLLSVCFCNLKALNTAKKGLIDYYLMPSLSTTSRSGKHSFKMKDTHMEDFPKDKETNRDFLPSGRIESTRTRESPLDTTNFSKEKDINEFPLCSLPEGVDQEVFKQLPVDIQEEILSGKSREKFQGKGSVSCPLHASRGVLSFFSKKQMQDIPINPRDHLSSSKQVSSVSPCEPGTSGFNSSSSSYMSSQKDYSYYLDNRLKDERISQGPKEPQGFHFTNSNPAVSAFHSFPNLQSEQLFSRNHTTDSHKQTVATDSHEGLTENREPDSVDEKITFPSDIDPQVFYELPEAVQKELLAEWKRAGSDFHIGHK

Biological target: DNA polymerase iota (Homo sapiens) (UniProt Q9UNA4)
Test: qHTS for Inhibitors of Polymerase Iota
Conditions: Pol iota fluorescent replication assay, 10 min; at 115 µM (top of the series)

SMILES | activity, negative = inhibition
O=C(NCC1(N2CCCCC2)CCCCC1)c1cncc(Br)c1 | inactive: 16.9%
CN1CCC(Nc2cccc(F)c2)CC1 | inactive: 19.9%
O=C(OC1CN2CCC1CC2)c1ccc([N+](=O)[O-])cc1 (stereo unspecified) | inactive: 2.36%
CCCOc1ccc(C(=O)NCC2(N(C)C)CCCCC2)cc1OC | inactive: 20.9%
O=C(NCC1(N2CCOCC2)CCCCC1)c1ccccc1Br | inactive: -5.86%
CCCCOc1ccccc1C(=O)NCC1(N2CCOCC2)CCCCC1 | inactive: -7.64%
O=[N+]([O-])c1cc([N+](=O)[O-])c(OC2CCCCC2O)c([N+](=O)[O-])c1 (stereo unspecified) | inactive: 25.9%
CN(C)c1cccc(C(=O)NCC2(N3CCCCC3)CCCCC2)c1 | inactive: 0.458%
COc1ccc(CN(CCCl)CCCl)cc1Cl | inactive: 13.6%
CC(C)c1ccc(NC2CCN(C(=O)OC(C)(C)C)CC2)cc1 | inactive: 46.9%
O=C(NCC1(N2CCOCC2)CCCCC1)c1cc(F)c(F)cc1Cl | inactive: 23.2%
COc1cc(OC)c(C(=O)NCC2(N(C)C)CCCCC2)cc1OC | inactive: 25.3%
CCCOc1cccc(C(=O)NCC2(N3CCOCC3)CCCCC2)c1 | inactive: -5.72%
O=C(NCC1(N2CCCCC2)CCCCC1)c1cccc(C(F)(F)F)c1 | inactive: -2.92%
O=[N+]([O-])c1cc([N+](=O)[O-])c(NCC2CCS(=O)(=O)C2)c([N+](=O)[O-])c1 (stereo unspecified) | inactive: 1.61%
CN1CCN(CCOC(=O)C(O)(c2ccccc2)c2ccccc2)CC1 | inactive: -14.7%
CC(C)c1ccc(C(=O)NCC2(N3CCOCC3)CCCCC2)cc1 | inactive: 12.8%
COc1ccc(NC2CCN(C(=O)OC(C)(C)C)CC2)cc1 | inactive: 22.9%
COc1cc(C(=O)NCC2(N3CCCCC3)CCCCC2)ccc1OC(F)F | inactive: 14.4%
O=C(NCC1(N2CCOCC2)CCCCC1)c1cc(=O)[nH]c2ccccc12 | inactive: 23.2%
O=C(NCC1(N2CCCCC2)CCCCC1)c1ccc(OC(F)F)cc1 | inactive: 129%
CSc1ccc(C(=O)NCC2(N3CCOCC3)CCCCC2)cc1 | inactive: 25.2%
CCOc1ccc(C(=O)NCC2(N3CCOCC3)CCCCC2)cc1 | inactive: -5.27%
O=C(NCC1(N2CCCCC2)CCCCC1)c1cccc([N+](=O)[O-])c1 | inactive: -0.978%
N#CC1(Nc2ccccc2)CCN(CCc2ccccc2)CC1 | inactive: 20.9%
CCN1CCC(Nc2ccc(Cl)cc2)CC1 | inactive: 6.01%
